Laboratory results published in patent US7655756B2 (Johnson & Johnson Pharmaceutical Research & Development, LLC, priority 2005, dated 2010).

Protein sequences, listed by entry. Tags and fused reporters are not part of them.
UniProt Q92731, whole entry, species assumed: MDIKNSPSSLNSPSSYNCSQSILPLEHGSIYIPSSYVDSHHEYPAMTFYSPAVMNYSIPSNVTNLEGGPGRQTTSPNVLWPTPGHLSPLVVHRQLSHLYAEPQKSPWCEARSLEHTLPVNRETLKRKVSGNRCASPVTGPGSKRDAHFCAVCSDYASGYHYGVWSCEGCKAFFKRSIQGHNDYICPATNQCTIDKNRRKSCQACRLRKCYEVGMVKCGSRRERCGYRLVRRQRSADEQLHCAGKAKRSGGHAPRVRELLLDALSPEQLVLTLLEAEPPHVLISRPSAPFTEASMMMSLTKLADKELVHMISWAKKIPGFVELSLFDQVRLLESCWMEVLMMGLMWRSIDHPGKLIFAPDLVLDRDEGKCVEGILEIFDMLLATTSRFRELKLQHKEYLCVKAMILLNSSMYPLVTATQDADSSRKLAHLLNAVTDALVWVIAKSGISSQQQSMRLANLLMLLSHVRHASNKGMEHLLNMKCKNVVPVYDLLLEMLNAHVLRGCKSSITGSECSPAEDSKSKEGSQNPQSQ

Target: ERβ (Homo sapiens, UniProt Q92731)
Assay: ThermoFluor thermal shift assay, ERβ
Format: binding
Details: pH 8, read-out: ΔTm, thermal stabilization of ERβ

With `CC/C(=C(/CC)c1ccc(O)cc1)c1ccc(O)cc1` [DES, di-ethylstilbestrol] the ΔTm at 100 µM was 18.9 °C.
